Reference: paper PMC12772190

Legend:
[1] = target: bOmpA 1 Cys N-term labeled with Alexa Fluor 488 (TM β-barrel of OmpA) (UniProt P0A910)
[2] = target: bOmpA 1 Cys N-term labeled with Alexa Fluor 488 (TM β-barrel of OmpA) (UniProt P0A910); remark: listed apart in the source

K0.5 (BAM concentration at half k fold) of single-turnover folding kinetics, fluorescence of 10 nM bOmpA-A488, BAM in EPL proteoliposomes, 0.1 µM SurA [1] [µM]	K0.5 of single-turnover folding kinetics, fluorescence of bOmpA-A488, BamAB in EPL proteoliposomes [2] [µM]	Substance
3.1		Wild-type BAM complex (BamABCDE) (from UniProt P0A940 21-810; P77774 20-392; P0A903 25-344; P0AC02 20-245; P0A937 20-113)
	2.7	BamAB subcomplex (BamA coexpressed with His-tagged BamB) (from UniProt P0A940 21-810; P77774 20-392)
